Our source for the Kd values is BindingDB's records for doi:10.7270/Q2ZP44GN (Ambit Biosciences, 2008).

The chains behind the UniProt entries cited, without tags or fusion partners.
UniProt Q16539, whole entry: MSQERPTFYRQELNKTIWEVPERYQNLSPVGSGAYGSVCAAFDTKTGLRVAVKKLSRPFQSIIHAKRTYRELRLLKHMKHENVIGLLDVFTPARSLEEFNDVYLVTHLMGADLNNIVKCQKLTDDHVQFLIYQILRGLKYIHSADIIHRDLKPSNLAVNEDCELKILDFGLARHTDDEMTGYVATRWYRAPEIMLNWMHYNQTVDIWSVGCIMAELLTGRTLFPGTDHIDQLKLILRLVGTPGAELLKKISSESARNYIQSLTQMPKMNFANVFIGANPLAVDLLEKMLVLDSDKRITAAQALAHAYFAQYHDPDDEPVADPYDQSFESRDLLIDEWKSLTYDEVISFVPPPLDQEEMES

Structures are written as SMILES.

This assay concerns the target Mitogen-activated protein kinase 14 (Homo sapiens, UniProt Q16539).

Regarding `NC(=O)c1ccc(-c2nc(-c3ccc4c(c3)OCO4)c(-c3ccccn3)[nH]2)cc1` [SB-431542], the equilibrium dissociation constant (Kd) turned out to be 170 nM.
